## scFv variants of Ab-14 (light chain) against a SARS-CoV-2 spike peptide

The target is the same throughout: PDVDLGDISGINAS, from the HR2 region of SARS-CoV-2 spike.

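The parent was found by panning a naive human phage display library on the peptide. This is the validation round: designs drawn from the data on random variants, tested in the same kind of assay. Group labels follow the data file (Ctrl: baseline library sampled from a position-specific scoring matrix, with some repeated check sequences; Rand: our label for a block that the file lists under HC and that is probably the random mutants of the ten best first-round binders; GP: Gaussian process model; HC: hill climbing; Gen: genetic algorithm; Gibbs: Gibbs sampling; a sequence that several methods proposed may carry one label only). The assay is AlphaSeq: two haploid yeast populations carry antibody and antigen on their surface. Pairs that bind mate more often; barcode pairs of the diploids are counted by sequencing. The ratio of observed to expected reads was calibrated, replicate by replicate, on BCL2-family standards whose Kd was known from biolayer interferometry. Mating was done six times.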

Parent: Ab-14, a human scFv built as VH, the linker GGGGSGGGGSGGGGS, VL. Only the CDRs of the light chain vary.
VH: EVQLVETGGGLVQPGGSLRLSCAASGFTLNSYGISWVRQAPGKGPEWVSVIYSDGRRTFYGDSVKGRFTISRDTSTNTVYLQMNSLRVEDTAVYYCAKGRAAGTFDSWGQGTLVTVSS
VL: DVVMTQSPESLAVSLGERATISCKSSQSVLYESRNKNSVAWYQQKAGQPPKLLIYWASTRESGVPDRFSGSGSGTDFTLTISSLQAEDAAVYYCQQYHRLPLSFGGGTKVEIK

Positions count from residue 1 of the parent VL; S26G puts G in place of S. This list holds designs with at most six substitutions. Values are apparent Kd, the geometric mean of the replicates that gave a signal; lower means stronger binding. "no signal" means that the variant was in the library but no mating with the target was seen in any replicate; the authors take this as a sign of poor binding, and no number exists. Empty control strains, which show no peptide, gave a signal in 4% of pairings with all light chain designs; the median was 430 nM and 95% of these signals were weaker than 38 nM. No background was subtracted.

- S26G S28G K36A W56G [GP_HC] = 1.4 nM (6 of 6 replicates)
- S25L E32V [Ctrl] = no signal (0 of 6 replicates)
- Q27P N37H W56D [Ctrl] = 370 pM (6 of 6 replicates)
- S25L V29Q N35A W56N [GP_Gen] = 1.3 nM (6 of 6 replicates)
- S25L V29S E32D W56N [GP_HC] = 430 pM (6 of 6 replicates)
- S25L S26P V29Q W56N T59Q E61L [GP_Gen] = 810 pM (6 of 6 replicates)
- N35S K36V S62V [Ctrl] = 73 nM (4 of 6 replicates)
- V29W L30D K36P Q95Y [Ctrl] = 1.0 µM (3 of 6 replicates)
- S25L S26M W56G S62D [GP_HC] = 1.4 nM (6 of 6 replicates)
- S25L S26E V29W W56N T59Q [GP_Gen] = 450 pM (6 of 6 replicates)
- Q27L Y31F W56D E61M [GP_HC] = 12 nM (6 of 6 replicates)
- V39I H98N [Ctrl] = 61 nM (6 of 6 replicates)
- S25Q S33D W56D [GP_HC] = 1.2 nM (6 of 6 replicates)
- S25L V29A S38N W56N [GP_Gen] = 480 pM (6 of 6 replicates)
- Y31N S33P W56D [GP_HC] = 690 pM (6 of 6 replicates)
- S25M Y31A R34D N35E [Ctrl] = 55 nM (1 of 6 replicates)
- S25F W56G E61L [GP_Gen] = 570 pM (6 of 6 replicates)
- S25L Q27G V29W W56H [GP_Gen] = 310 pM (6 of 6 replicates)
- S25L S26M V29W W56N S62D [GP_Gen] = 1.1 nM (6 of 6 replicates)
- S25I V29F N35W W56G T59Q [GP_HC] = 2.0 nM (6 of 6 replicates)
- S26G Y31G [Ctrl] = 22 nM (6 of 6 replicates)
- S25L L30P W56N T59Q S62Q [GP_Gen] = 660 pM (6 of 6 replicates)
- S25V S28N R34T W56D [Ctrl] = 2.0 nM (6 of 6 replicates)
- S25I S33D W56N [Ctrl+GP_Gen] = 470 pM (12 of 12 replicates)
- S25N L30V E32D W56G S58T [Ctrl] = 660 pM (6 of 6 replicates)
- L30V R34D N35E S58Y P101M [Ctrl] = no signal (0 of 6 replicates)
- S25L V29D S38A W56G [GP_Gen] = 1.0 nM (6 of 6 replicates)
- S26Q L30E S38N W56H S62D [GP_HC] = 76 nM (6 of 6 replicates)
- S26N [Ctrl] = 370 nM (5 of 6 replicates)
- S26E V29Q L30E W56H S62D [GP_HC] = 8.6 nM (5 of 6 replicates)
- S25L S33M N35V W56E S58V [GP_Gibbs] = 1.3 nM (6 of 6 replicates)
- Q27W L30D W56D [GP_HC] = 410 pM (6 of 6 replicates)
- S25L W56E E61M S62V [GP_Gen] = 520 pM (6 of 6 replicates)
- S25L V29W W56N E61L S62D [GP_Gen] = 660 pM (6 of 6 replicates)
- S28G W56D E61M [Ctrl] = 11 nM (6 of 6 replicates)
- S38A W56E [Ctrl] = 4.5 nM (6 of 6 replicates)
- K24S S25V N35T W56N [GP_HC] = 1.2 nM (6 of 6 replicates)
- S25L S38N W56N S62D [GP_Gen] = 230 pM (6 of 6 replicates)
- S25I R34D W56E R99V [Ctrl] = 9.3 nM (6 of 6 replicates)
- S25L Q27M V29W S38N W56N [GP_Gen] = 280 pM (6 of 6 replicates)
- K24S S25F N35T V39Q W56N Q95L [Rand] = 120 nM (6 of 6 replicates)
- Q27Y V29Y W56E S62Q [GP_HC] = 980 pM (6 of 6 replicates)
- S25F S28A [Ctrl] = 3.9 nM (6 of 6 replicates)

The first 4 entries again:

{"changes": "S26G S28G K36A W56G", "group": "GP_HC", "Kd (apparent)": "1.4 nM", "seen in": "6 of 6"}
{"changes": "S25L E32V", "group": "Ctrl", "Kd (apparent)": "no signal", "seen in": "0 of 6"}
{"changes": "Q27P N37H W56D", "group": "Ctrl", "Kd (apparent)": "370 pM", "seen in": "6 of 6"}
{"changes": "S25L V29Q N35A W56N", "group": "GP_Gen", "Kd (apparent)": "1.3 nM", "seen in": "6 of 6"}

The authors averaged sequences with at least three values out of six and counted those with two or fewer as poor binders. The parent sequence was in this pool as ten entries: three were never detected, three once, and four in most replicates, with averages from 2.2 nM to 240 nM. Some sequences occur more than once in the pool; their replicates are pooled. The range of this assay differs from that of the first round, and the authors advise against merging the two.

Data: MIT Lincoln Laboratory AlphaSeq set, Li et al. 2023, doi:10.1038/s41467-023-39022-2, as distributed in FLAb.